Earlier results in patent US20160258951A1, “METHODS OF MONITORING IMMUNE RESPONSES” (THE HENRY M. JACKSON FOUNDATION FOR THE ADVANCEMENT OF …, priority 2013, published 2016).

Experiments:
[1] = test system: patients with HER2/neu+ breast cancer; conditions: cited from earlier work
[2] = test system: patients with low to intermediate HER2/neu expression; conditions: cited from earlier work

CC[C@H](C)[C@H](NC(=O)[C@@H](N)CCCCN)C(=O)N[C@@H](Cc1ccccc1)C(=O)NCC(=O)N[C@@H](CO)C(=O)N[C@@H](CC(C)C)C(=O)N[C@@H](C)C(=O)N[C@@H](Cc1ccccc1)C(=O)N[C@@H](CC(C)C)C(=O)O [E75, KIFGSLAFL]
clinical benefit of conferred immunity ([1]; breast cancer recurrence): clinical benefit in decreasing breast cancer recurrence
safety and stimulation of antigen-specific immunity ([1]; clinical vaccines in HER2/neu+ breast cancer): safe and effective in stimulating antigen-specific immunity

Tz: recombinant, humanized monoclonal antibody that binds the extracellular juxtamembrane domain of HER2/neu protein
clinical activity [2]: very limited activity
